From IntAct's records for PubMed 17289840

B1: Glutamate receptor 2 (Rattus norvegicus (Rat)), P19491 (parent)
chain: MQKIMHISVLLSPVLWGLIFGVSSNSIQIGGLFPRGADQEYSAFRVGMVQFSTSEFRLTPHIDNLEVANSFAVTNAFCSQFSRGVYAIFGFYDKKSVNTITSFCGTLHVSFITPSFPTDGTHPFVIQMRPDLKGALLSLIEYYQWDKFAYLYDSDRGLSTLQAVLDSAAEKKWQVTAINVGNINNDKKDETYRSLFQDLELKKERRVILDCERDKVNDIVDQVITIGKHVKGYHYIIANLGFTDGDLLKIQFGGANVSGFQIVDYDDSLVSKFIERWSTLEEKEYPGAHTATIKYTSALTYDAVQVMTEAFRNLRKQRIEISRRGNAGDCLANPAVPWGQGVEIERALKQVQVEGLSGNIKFDQNGKRINYTINIMELKTNGPRKIGYWSEVDKMVVTLTELPSGNDTSGLENKTVVVTTILESPYVMMKKNHEMLEGNERYEGYCVDLAAEIAKHCGFKYKLTIVGDGKYGARDADTKIWNGMVGELVYGKADIAIAPLTITLVREEVIDFSKPFMSLGISIMIKKPQKSKPGVFSFLDPLAYEIWMCIVFAYIGVSVVLFLVSRFSPYEWHTEEFEDGRETQSSESTNEFGIFNSLWFSLGAFMQQGCDISPRSLSGRIVGGVWWFFTLIIISSYTANLAAFLTVERMVSPIESAEDLSKQTEIAYGTLDSGSTKEFFRRSKIAVFDKMWTYMRSAEPSVFVRTTAEGVARVRKSKGKYAYLLESTMNEYIEQRKPCDTMKVGGNLDSKGYGIATPKGSSLGNAVNLAVLKLNEQGLLDKLKNKWWYDKGECGSGGGDSKEKTSALSLSNVAGVFYILVGGLGLAMLVALIEFCYKSRAEAKRMKVAKNPQNINPSSSQNSQNFATYKEGYNVYGIESVKI

Variants of: B1
Details: with ap2m1_rat Ap2m1, P84092

Row | Variant | effect of a mutation on the interaction
1 | R845A | decreasing interaction strength
2 | K847A | decreasing interaction strength

Variants of: B1
Details: with ap2m1_rat Ap2m1, P84092
Remark: another data set of the same source

Row | Variant | effect of a mutation on the interaction
3 | K844A | decreasing interaction strength
